Ab-14 heavy chain CDR variants: yeast mating affinities

Target peptide (SARS-CoV-2 spike, HR2 region): PDVDLGDISGINAS

Ab-14 is the parent antibody, in scFv form: VH, then the linker GGGGSGGGGSGGGGS, then VL. The light chain is unchanged in all variants.
VH: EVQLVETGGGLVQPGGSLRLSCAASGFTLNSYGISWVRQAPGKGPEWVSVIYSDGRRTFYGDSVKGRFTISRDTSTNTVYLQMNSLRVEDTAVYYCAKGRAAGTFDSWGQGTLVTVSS
VL: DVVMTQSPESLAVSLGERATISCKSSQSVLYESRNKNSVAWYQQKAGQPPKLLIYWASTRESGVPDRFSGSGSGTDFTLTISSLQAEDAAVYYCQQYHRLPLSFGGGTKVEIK

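The parent was found by panning a naive human phage display library on the peptide. The variants were designed computationally from a first round of random CDR variants and then made and measured. Their group label is 14H_GPLM_Gen (GPLM: also part of the Gaussian process libraries; Gen: genetic algorithm; a sequence that several methods proposed may carry one label only). The scFvs were displayed on barcoded MATa yeast, the peptide on MATalpha yeast. Mating (16 h, 30 °C) was followed by selection of diploids and sequencing of their barcodes. Read counts were normalised to the haploid input and turned into Kd by a linear fit to BCL2-family pairs of known affinity, for each replicate. The assay was run in six technical replicates.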

Each variant's VH is given in full. Scale: log10 of Kd in nM, estimated from mating counts; low values are strong binders. A mean of the replicates is given; it leaves out those without a signal. An entry "n.d." has no value in the source: the pair was not observed among the diploids in that replicate. This suggests poor binding but is not conclusive. Of ten entries with the parent sequence, four were seen in most replicates (averages 0.34 to 2.37), three in one and three in none, so single entries are noisy. Empty control strains, which show no peptide, gave a signal in 1% of pairings with all heavy chain designs; the median was 2.08 and 95% of these signals were weaker than 0.84. No background was subtracted. For each scFv, signals with the empty controls are counted beside the result, with their mean in brackets. In the paper, a design with two or fewer of six values counts as a poor binder. A sequence measured in both rounds can read differently, since the two assays cover different ranges.

VH,log10 Kd (nM) by replicate,"mean, log10 nM",empty controls
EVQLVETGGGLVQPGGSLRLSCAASGFTLNSYGISWVRQAPGKGPEWVSVIYSDGRRTFYADPVKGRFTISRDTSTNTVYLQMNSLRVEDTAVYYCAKGRTAGTFDSWGQGTLVTVSS,n.d. n.d. 2.47 0.90 1.76 2.05,1.80,0/18
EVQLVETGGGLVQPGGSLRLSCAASGFSLNSYGISWVRQAPGKGPEWVSVIYSDGRRTFYDDRVKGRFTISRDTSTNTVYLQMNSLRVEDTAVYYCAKGRTAGTFDSWGQGTLVTVSS,0.29 0.77 0.16 0.06 0.09 0.07,0.24,0/18
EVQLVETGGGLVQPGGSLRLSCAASGFTLNEYGISWVRQAPGKGPEWVSVIYSDGRRTFYSDSVKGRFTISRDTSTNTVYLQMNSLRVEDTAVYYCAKGQAAGTFDTWGQGTLVTVSS,-0.25 -0.09 -0.19 -0.39 0.16 0.40,-0.06,0/18
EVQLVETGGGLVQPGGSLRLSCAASGFSLNEYGISWVRQAPGKGPEWVSVIYSDGRRTFYGDSVKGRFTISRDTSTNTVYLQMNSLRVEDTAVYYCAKGRTAGTFVSWGQGTLVTVSS,0.97 1.35 0.74 2.00 2.82 1.75,1.61,0/18
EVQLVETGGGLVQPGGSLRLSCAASGFSLESYGISWVRQAPGKGPEWVSVIYSDGRRTFYGDSVKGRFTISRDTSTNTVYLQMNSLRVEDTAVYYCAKGRAAGTFDSWGQGTLVTVSS,0.83 0.58 0.94 0.28 0.70 0.72,0.68,0/18
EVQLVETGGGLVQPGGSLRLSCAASGFSLNSYGISWVRQAPGKGPEWVSVIYSDGRRTFYIDSVKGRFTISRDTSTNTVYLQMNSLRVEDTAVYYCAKGHAAGTFDSWGQGTLVTVSS,n.d. 1.24 0.50 1.55 n.d. n.d.,1.10,0/18
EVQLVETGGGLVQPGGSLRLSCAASGFSLNMYGISWVRQAPGKGPEWVSVIYSDGRRTFYGDSVKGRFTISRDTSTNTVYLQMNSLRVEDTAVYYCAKGRAAGTFDSWGQGTLVTVSS,1.18 0.76 0.98 0.99 1.20 1.40,1.09,0/18
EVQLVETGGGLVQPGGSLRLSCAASGFSLNNYGISWVRQAPGKGPEWVSVIYSDGRRTFYGDSVKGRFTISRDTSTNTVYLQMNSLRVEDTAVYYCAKGQAAGTFDLWGQGTLVTVSS,0.41 0.55 0.27 0.05 0.32 0.07,0.28,2/18 (2.43)
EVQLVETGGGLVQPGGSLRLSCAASGFSLNSYGISWVRQAPGKGPEWVSVIYADGRRTFYGDQVKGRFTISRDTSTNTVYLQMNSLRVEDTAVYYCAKGRAAGTFDSWGQGTLVTVSS,-0.80 0.35 n.d. n.d. 0.11 n.d.,-0.11,0/18
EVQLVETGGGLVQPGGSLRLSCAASGFSLNTYGISWVRQAPGKGPEWVSVIYSDGRRTFYADSVKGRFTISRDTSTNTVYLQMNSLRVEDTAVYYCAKGRTAGTFDSWGQGTLVTVSS,0.35 1.25 1.77 1.03 1.10 0.37,0.98,0/18
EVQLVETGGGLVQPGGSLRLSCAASGFNLNSYGISWVRQAPGKGPEWVSVIYSDGRRTFYGDSVKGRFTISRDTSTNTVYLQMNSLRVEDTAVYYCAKGQAAGTFDSWGQGTLVTVSS,1.20 2.02 1.63 n.d. 1.36 1.04,1.45,0/18
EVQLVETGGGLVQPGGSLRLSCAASGFTLNSYGISWVRQAPGKGPEWVSVIYADGRRTFYGDQVKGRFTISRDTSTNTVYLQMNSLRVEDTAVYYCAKGEAAGTFDSWGQGTLVTVSS,0.18 -0.13 0.86 -0.90 0.37 0.25,0.11,0/18
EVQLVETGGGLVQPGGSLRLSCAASGFTLNEYGISWVRQAPGKGPEWVSVIYSDGRRTFYSDSVKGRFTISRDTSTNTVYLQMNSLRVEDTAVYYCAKGTAAGTFDSWGQGTLVTVSS,0.01 -0.04 -0.10 -0.22 -0.02 0.03,-0.06,1/18 (2.69)
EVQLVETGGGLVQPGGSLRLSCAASGFSLNSYGISWVRQAPGKGPEWVSVIYSDGRRTFYDDKVKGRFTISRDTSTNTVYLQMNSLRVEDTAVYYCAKGRTAGTFDSWGQGTLVTVSS,0.43 0.39 0.45 0.47 0.38 0.52,0.44,1/18 (2.44)
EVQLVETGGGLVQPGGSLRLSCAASGFTLNSYGISWVRQAPGKGPEWVSVIYADGRRTFYGDSVKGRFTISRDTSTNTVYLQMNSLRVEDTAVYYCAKGHAAGTFDSWGQGTLVTVSS,0.34 -0.11 -0.41 -0.31 -0.34 0.06,-0.13,2/18 (1.95)
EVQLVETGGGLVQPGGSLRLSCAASGFSLNNYGISWVRQAPGKGPEWVSVIYSDGRRTFYGDSVKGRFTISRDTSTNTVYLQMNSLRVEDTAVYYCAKGEAAGTFDSWGQGTLVTVSS,0.36 0.33 0.04 0.18 0.19 0.28,0.23,0/18
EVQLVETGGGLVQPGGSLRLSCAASGFNLNSYGISWVRQAPGKGPEWVSVIYSDGRRTFYIDSVKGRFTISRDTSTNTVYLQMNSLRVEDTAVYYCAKGQTAGTFDSWGQGTLVTVSS,0.91 0.94 1.85 0.90 0.70 1.47,1.13,2/18 (1.96)
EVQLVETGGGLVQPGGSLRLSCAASGFGLNEYGISWVRQAPGKGPEWVSVIYSDGRRTFYGDSVKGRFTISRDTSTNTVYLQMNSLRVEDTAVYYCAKGKAAGTFDSWGQGTLVTVSS,0.42 0.34 0.25 0.30 0.05 0.39,0.29,0/18

Excerpt, the final 3 entries:

{"VH": "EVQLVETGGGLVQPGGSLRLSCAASGFSLNNYGISWVRQAPGKGPEWVSVIYSDGRRTFYGDSVKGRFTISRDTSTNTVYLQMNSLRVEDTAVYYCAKGEAAGTFDSWGQGTLVTVSS", "log10 Kd (nM) by replicate": "0.36 0.33 0.04 0.18 0.19 0.28", "mean, log10 nM": "0.23", "empty controls": "0/18"}
{"VH": "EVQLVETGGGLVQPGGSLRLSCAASGFNLNSYGISWVRQAPGKGPEWVSVIYSDGRRTFYIDSVKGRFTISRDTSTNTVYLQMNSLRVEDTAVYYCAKGQTAGTFDSWGQGTLVTVSS", "log10 Kd (nM) by replicate": "0.91 0.94 1.85 0.90 0.70 1.47", "mean, log10 nM": "1.13", "empty controls": "2/18 (1.96)"}
{"VH": "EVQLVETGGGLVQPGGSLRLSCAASGFGLNEYGISWVRQAPGKGPEWVSVIYSDGRRTFYGDSVKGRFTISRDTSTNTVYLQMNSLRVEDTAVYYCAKGKAAGTFDSWGQGTLVTVSS", "log10 Kd (nM) by replicate": "0.42 0.34 0.25 0.30 0.05 0.39", "mean, log10 nM": "0.29", "empty controls": "0/18"}

The measurements come from Li et al. 2023 (doi:10.1038/s41467-023-39022-2) through the FLAb antibody collection.